Laboratory results from paper PMC2193166 (The Journal of Experimental Medicine, 2000).

What was measured:
ALXR [1] = molecular target: T1, ALXR (Homo sapiens, UniProt P25090); test: Chemotaxis of CHO cells expressing ALXR together with Gqo chimera; format: cell-based; settings: not shown
T1 sequence (P25090 1-351): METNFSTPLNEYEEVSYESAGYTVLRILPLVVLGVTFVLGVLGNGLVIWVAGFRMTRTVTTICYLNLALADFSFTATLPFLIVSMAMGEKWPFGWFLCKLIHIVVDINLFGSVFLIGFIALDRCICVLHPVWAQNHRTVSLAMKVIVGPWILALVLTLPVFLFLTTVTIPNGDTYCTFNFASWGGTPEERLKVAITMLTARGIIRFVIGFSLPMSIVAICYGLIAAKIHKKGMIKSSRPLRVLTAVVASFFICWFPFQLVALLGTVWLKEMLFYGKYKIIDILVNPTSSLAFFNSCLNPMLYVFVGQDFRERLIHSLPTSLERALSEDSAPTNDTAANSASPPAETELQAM

ALXR [2] = molecular target: T1, ALXR; settings: higher pharmacological doses; cited from earlier work
ALXR [3] = molecular target: T1, ALXR; settings: cited from earlier work

FMLP
chemotaxis of CHO-ALXR cells (in words) (ALXR [1]): did not stimulate chemotaxis | doses at which ALXR responds to FMLP (ALXR [2]): 1 to 10 µM | displacement of ^3H-LXA4 binding (ALXR [3]; at levels <1 μM): did not show displacement | concentration needed to compete for ^3H-LXA4 binding with ALXR (ALXR [3]): 1 to 100 µM
